Source: patent US9901621B2, “Composition for treating hyperlipidemia comprising oxyntomodulin derivative” (HANMI PHARM. CO., LTD., priority 2012, dated 2018)
pEC50: −log10 of the molar value.

Chains of the proteins cited; added tags and fusions are not shown. Residues count along the entry.
UniProt P47871, 26-477: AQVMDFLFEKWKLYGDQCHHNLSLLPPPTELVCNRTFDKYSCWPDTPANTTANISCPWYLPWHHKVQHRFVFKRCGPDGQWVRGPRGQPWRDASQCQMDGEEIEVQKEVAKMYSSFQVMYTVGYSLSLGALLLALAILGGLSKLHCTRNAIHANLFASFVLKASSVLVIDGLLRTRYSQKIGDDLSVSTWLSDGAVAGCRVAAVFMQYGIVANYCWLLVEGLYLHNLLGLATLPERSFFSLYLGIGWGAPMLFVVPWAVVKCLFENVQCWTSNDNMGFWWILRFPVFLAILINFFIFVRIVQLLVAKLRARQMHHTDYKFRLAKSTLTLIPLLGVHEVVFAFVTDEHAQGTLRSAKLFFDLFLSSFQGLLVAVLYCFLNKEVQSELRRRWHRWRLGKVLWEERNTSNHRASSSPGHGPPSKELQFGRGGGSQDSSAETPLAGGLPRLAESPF
UniProt P43220, 24-463: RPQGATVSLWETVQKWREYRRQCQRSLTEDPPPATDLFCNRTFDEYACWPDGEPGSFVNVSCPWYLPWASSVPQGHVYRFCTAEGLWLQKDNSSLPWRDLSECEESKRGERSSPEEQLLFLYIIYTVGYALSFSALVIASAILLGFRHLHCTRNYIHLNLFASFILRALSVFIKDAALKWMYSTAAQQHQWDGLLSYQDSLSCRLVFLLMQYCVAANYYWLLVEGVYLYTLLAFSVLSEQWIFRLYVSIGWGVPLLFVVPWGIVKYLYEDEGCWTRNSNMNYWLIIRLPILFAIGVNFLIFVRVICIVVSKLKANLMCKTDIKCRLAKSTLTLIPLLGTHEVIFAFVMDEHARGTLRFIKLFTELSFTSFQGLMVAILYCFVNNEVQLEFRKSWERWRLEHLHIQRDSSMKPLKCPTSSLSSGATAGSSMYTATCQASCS

Legend:
[1] = target: T1, human glucagon receptor (Homo sapiens, UniProt P47871); assay: cAMP response in CHO cells expressing glucagon receptor (CHO/GCGR); assay type: cell-based
T1 construct: Using a portion corresponding to the ORF (open reading frame) of cDNA; expressed in transfected cells; host or cells: CHO DG44
Protocol: The PCR product was cloned into the known animal cell expression vector x0GC/dhfr, thereby constructing the recombinant vector x0GC/GCGR.
(§1) The recombinant vector x0GC/GCGR was introduced into a CHO DG44 cell line, cultured in DMEM/F12 (10% FBS) medium, using lipofectamine (Invitrogene, USA), to obtain a transformant. The transformant was incubated in a selective medium containing 1 mg/mL G418 and 10 nM methotraxate, and monoclonal cell lines were selected therefrom.
(§2) The cultured cells were washed with KRB buffer, suspended in 40 ml of 1 mM IBMX-containing KRB buffer, and then allowed to stand at room temperature for 5 minutes. […] Then, 20 ml of cell lysis buffer was added to lyse the cells, and the concentration of cAMP in each of the cell lysates was measured using a cAMP assay kit (Molecular Device, USA).

[2] = target: T2, human GLP-1 receptor (Homo sapiens, UniProt P43220); assay: cAMP response in CHO cells expressing GLP-1 receptor (CHO/GLP-1R); assay type: cell-based
T2 construct: Using a portion corresponding to the ORF (open reading frame) of cDNA; expressed in transfected cells; host or cells: CHO DG44
Protocol: The PCR product was cloned into the known animal cell expression vector x0GC/dhfr, thereby constructing the recombinant vector x0GC/GLP-1R.
as §1, with “x0GC/GLP-1R” for “x0GC/GCGR”
as §2

| Compound | pEC50 [1] | pEC50 [2] |
| --- | --- | --- |
| CC[C@H](C)[C@H](NC(=O)[C@H](CC(N)=O)NC(=O)[C@H](CC(N)=O)NC(=O)[C@H](CCCNC(=N)N)NC(=O)[C@H](CC(N)=O)NC(=O)[C@H](CCCNC(=N)N)NC(=O)[C@H](CCCCN)NC(=O)[C@@H](NC(=O)[C@H](CC(N)=O)NC(=O)[C@H](CCSC)NC(=O)[C@H](CC(C)C)NC(=O)[C@H](Cc1c[nH]c2ccccc12)NC(=O)[C@H](CCC(=O)O)NC(=O)[C@@H](NC(=O)[C@H](Cc1ccccc1)NC(=O)[C@H](CC(C)C)NC(=O)[C@H](CCCNC(=N)N)NC(=O)[C@@H](NC(=O)[C@H](C)NC(=O)[C@H](CCC(=O)O)NC(=O)[C@H](CCC(=O)O)NC(=O)[C@H](CC(=O)O)NC(=O)[C@H](CC(C)C)NC(=O)[C@H](Cc1ccc(O)cc1)NC(=O)[C@H](CCCCN)NC(=O)[C@H](CO)NC(=O)[C@H](Cc1ccc(O)cc1)NC(=O)[C@H](CC(=O)O)NC(=O)[C@H](CO)NC(=O)[C@@H](NC(=O)[C@H](Cc1ccccc1)NC(=O)[C@@H](NC(=O)CNC(=O)[C@H](CCC(N)=O)NC(=O)[C@H](CO)NC(=O)Cc1c[nH]cn1)[C@@H](C)O)[C@@H](C)O)C(C)C)[C@@H](C)CC)[C@@H](C)O)C(=O)N[C@@H](C)C(=O)O [SEQ ID NO: 2] | 7.89 | 7.29 |
| CC(C)C[C@H](NC(=O)[C@H](Cc1c[nH]c2ccccc12)NC(=O)[C@H](C)NC(=O)[C@@H](NC(=O)[C@H](Cc1ccccc1)NC(=O)[C@H](CC(=O)O)NC(=O)[C@H](CCC(N)=O)NC(=O)[C@H](C)NC(=O)[C@H](CCCNC(=N)N)NC(=O)[C@H](CCCNC(=N)N)NC(=O)[C@H](CCC(=O)O)NC(=O)[C@H](CC(=O)O)NC(=O)[C@H](CC(C)C)NC(=O)[C@H](Cc1ccc(O)cc1)NC(=O)[C@H](CCCCN)NC(=O)[C@H](CO)NC(=O)[C@H](Cc1ccc(O)cc1)NC(=O)[C@H](CC(=O)O)NC(=O)[C@H](CO)NC(=O)[C@@H](NC(=O)[C@H](Cc1ccccc1)NC(=O)[C@@H](NC(=O)CNC(=O)[C@H](CCC(N)=O)NC(=O)[C@H](CO)NC(=O)Cc1c[nH]cn1)[C@@H](C)O)[C@@H](C)O)C(C)C)C(=O)N[C@@H](CCCCN)C(=O)N[C@@H](CC(N)=O)C(=O)N[C@H](C(=O)NCC(=O)N1CCC[C@H]1C(=O)N[C@@H](CO)C(=O)N[C@@H](CO)C(=O)NCC(=O)N[C@@H](C)C(=O)N1CCC[C@H]1C(=O)N1CCC[C@H]1C(=O)N1CCC[C@H]1C(=O)N[C@@H](CO)C(=O)O)[C@@H](C)O [SEQ ID NO: 3] | 6.20 | < 6.00 |
| CC[C@H](C)[C@H](NC(=O)[C@H](CC(N)=O)NC(=O)[C@H](CC(N)=O)NC(=O)[C@H](CCCNC(=N)N)NC(=O)[C@H](CC(N)=O)NC(=O)[C@H](CCCNC(=N)N)NC(=O)[C@H](CCCCN)NC(=O)[C@@H](NC(=O)[C@H](CC(N)=O)NC(=O)[C@H](CCCNC(=N)N)NC(=O)[C@@H](NC(=O)[C@H](Cc1c[nH]c2ccccc12)NC(=O)[C@H](CCC(=O)O)NC(=O)[C@@H](NC(=O)[C@H](Cc1ccccc1)NC(=O)[C@H](CC(C)C)NC(=O)[C@H](CCCNC(=N)N)NC(=O)[C@@H](NC(=O)[C@H](C)NC(=O)[C@H](CCC(=O)O)NC(=O)[C@H](CCC(=O)O)NC(=O)[C@H](CC(=O)O)NC(=O)[C@H](CC(C)C)NC(=O)[C@H](Cc1ccc(O)cc1)NC(=O)[C@H](CCCNC(=N)N)NC(=O)[C@H](CO)NC(=O)[C@H](Cc1ccc(O)cc1)NC(=O)[C@H](CC(=O)O)NC(=O)[C@H](CO)NC(=O)[C@@H](NC(=O)[C@H](Cc1ccccc1)NC(=O)[C@@H](NC(=O)CNC(=O)[C@H](CCC(N)=O)NC(=O)[C@H](CO)NC(=O)Cc1c[nH]cn1)[C@@H](C)O)[C@@H](C)O)C(C)C)[C@@H](C)CC)[C@@H](C)CC)[C@@H](C)O)C(=O)N[C@@H](C)C(=O)O [SEQ ID NO: 17] | < 6.00 | 7.01 |
